AlphaSeq binding of Ab-95 light chain variants to a spike HR2 peptide

Binding partner: SARS-CoV-2 spike HR2 peptide, sequence PDVDLGDISGINAS.

Parent scFv Ab-95: VH joined to VL by three GGGGS repeats. Changes lie in the light chain CDRs alone.
VH: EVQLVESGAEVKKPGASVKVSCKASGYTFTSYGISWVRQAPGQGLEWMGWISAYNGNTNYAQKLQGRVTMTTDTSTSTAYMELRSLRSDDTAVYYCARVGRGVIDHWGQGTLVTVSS
VL: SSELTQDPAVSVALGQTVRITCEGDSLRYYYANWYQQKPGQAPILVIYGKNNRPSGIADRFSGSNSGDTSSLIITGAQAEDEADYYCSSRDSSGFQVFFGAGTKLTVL

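AAYL52 was designed without a model: most single CDR substitutions and a random sample of double and triple ones. In AlphaSeq, yeast of one mating type display the scFv and yeast of the other type display the target. The frequency of each diploid, read from paired DNA barcodes, reflects how well the two displayed proteins bind. A regression on co-assayed BCL2-family reference pairs converts the normalised counts of each replicate to an apparent Kd. The assay was run in three technical replicates.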

Positions count from residue 1 of the parent VL; N33K puts K in place of N.
Affinities are written as log10 Kd with Kd in nM; a lower number is a better binder.
An entry "ND" has no value in the source: the pair was not observed among the diploids in that replicate. This suggests poor binding but is not conclusive.

changes	log10 Kd, replicates	signal with controls
N33K/G49V/S55I	4.87 / 3.83 / ND	2 of 9 (4.07)
E23K/G24E/Y31L	2.60 / 2.60 / 2.68	4 of 9 (4.07)
E23F/R90I/F95N	4.08 / 3.80 / 3.49	5 of 9 (4.30)
Y30S/D91R/F95N	2.85 / 2.37 / 2.92	5 of 9 (3.88)
N52Q/D91V	2.92 / 2.78 / 4.37	4 of 9 (4.07)
G24E/R53F/S93D	ND / ND / ND	3 of 9 (3.60)
S26G/G94T/F98L	ND / ND / 3.91	2 of 9 (3.74)
R28Q/P54S/S89R	3.91 / 3.02 / 3.65	2 of 9 (4.70)
E23L/K50I/S55F	2.84 / 3.53 / ND	1 of 9 (4.37)
R28K/N33E/S88M	3.77 / ND / 3.57	4 of 9 (3.70)
Y29R/S88I	ND / 3.86 / ND	7 of 9 (4.20)
L27N/A32R/D91K	3.62 / 3.42 / 3.30	6 of 9 (3.44)
S26K/G49V/Q96G	4.53 / ND / ND	0 of 9
A32G/N33S/S88Q	4.82 / 3.46 / 3.68	3 of 9 (3.75)
D25G/Y30H/Y31V	3.65 / 3.37 / 2.81	1 of 9 (3.60)
S89H/Q96Y/V97I	3.73 / ND / ND	1 of 9 (3.86)
P54A	1.67 / 1.73 / 1.03	2 of 9 (3.60)
N51K/R53M/S55D	4.52 / 3.42 / ND	4 of 9 (4.09)
L27H/Y29D/G49A	ND / 3.86 / 3.71	1 of 9 (4.71)
S26I/R28M/S93V	4.98 / ND / ND	2 of 9 (3.06)
S26Y/R53Q/D91G	3.81 / ND / 4.42	1 of 9 (3.95)
S26R/Y29I/S55I	2.45 / 2.78 / 1.74	6 of 9 (4.02)
N51M/R53F	4.43 / 5.68 / 3.16	3 of 9 (4.26)
N52L/S89H/D91P	2.38 / 2.91 / 2.42	5 of 9 (3.90)
D25A/L27N/P54E	ND / ND / ND	2 of 9 (2.97)
G49T/R90T/S93W	ND / 3.89 / ND	0 of 9
Y29T/S88E	1.74 / 1.23 / 0.90	3 of 9 (3.45)
F98H	2.74 / 2.86 / 2.72	3 of 9 (4.28)
R28T/Y29E	ND / 3.47 / 2.01	0 of 9
S92C/G94Y/F95H	2.57 / 4.35 / ND	0 of 9
N33D/S92D/G94L	ND / 3.98 / ND	3 of 9 (4.10)
S26R/Y30R/K50Y	3.92 / 3.56 / ND	2 of 9 (3.39)
G24I/Y30N/S89V	2.28 / 2.16 / 1.68	3 of 9 (4.10)
N33L/G49M/S92E	4.82 / 3.25 / ND	3 of 9 (3.82)
Y30G/N52D/D91Q	2.86 / 2.27 / 2.35	3 of 9 (3.81)
R28K	2.10 / 1.57 / 1.65	4 of 9 (4.21)

The 3 strongest on average among those seen in every replicate, once more:

changes	log10 Kd, replicates	signal with controls
Y29T/S88E	1.74 / 1.23 / 0.90	3 of 9 (3.45)
P54A	1.67 / 1.73 / 1.03	2 of 9 (3.60)
R28K	2.10 / 1.57 / 1.65	4 of 9 (4.21)

Nonspecific signal, from three strains lacking the peptide, appeared in 28% of pairings of library AAYL52, centred on 3.91 (5% of these signals below 2.90); values are not corrected for it. For each scFv, signals with the empty controls are counted beside the result, with their mean in brackets.

Source: Engelhart et al. 2022 (doi:10.1038/s41597-022-01779-4), MIT Lincoln Laboratory and A-Alpha Bio; data file from the FLAb repository.